Source: patent US20170296566A9, “METHODS AND COMPOSITIONS FOR TREATING AND/OR PREVENTING MUCOSITIS” (GLYCOMIMETICS, INC., priority 2013, published 2017)

The chains behind the UniProt entries cited, without tags or fusion partners. Residues count along the entry.
UniProt P16581, 22-175 limits assumed: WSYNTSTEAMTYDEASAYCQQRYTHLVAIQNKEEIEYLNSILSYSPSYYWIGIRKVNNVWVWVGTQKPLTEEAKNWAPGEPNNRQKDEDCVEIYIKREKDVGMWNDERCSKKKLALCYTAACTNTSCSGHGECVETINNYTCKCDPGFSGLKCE

Target: E-selectin (Homo sapiens, UniProt P16581)
Test: E-selectin competitive binding assay (inhibition of sLe^a binding to immobilized E-selectin/Ig chimera)
Conditions: read-out: IC50 (μM), E-Selectin Antagonist Activity, biotinylated sLe^a polyacrylamide with streptavidin/HRP, TMB, 450 nm, tested form: Na salt
Description: The inhibition assay to screen for and characterize glycomimetic antagonists of E-selectin is a competitive binding assay, which allows the determination of IC50 values. E-selectin/Ig chimera was immobilized in 96 well microtiter plates by incubation at 37° C. for 2 hours. To reduce nonspecific binding, bovine serum albumin was added to each well and incubated at room temperature for 2 hours. The plate was washed and serial dilutions of the test compounds were added to the wells in the presence of conjugates of biotinylated, sLe^a polyacrylamide with streptavidin/horseradish peroxidase and incubated for 2 hours at room temperature.
To determine the amount of sLe^a bound to immobilized E-selectin after washing, the peroxidase substrate, 3,3′,5,5′ tetramethylbenzidine (TMB) was added. After 3 minutes, the enzyme reaction was stopped by the addition of H3PO4, and the absorbance of light at a wavelength of 450 nm was determined.
In addition to reporting the absolute IC50 value as measured above, relative IC50 values (rIC50) are determined by a ratio of the IC50 measured for the test compound to that of an internal control (reference) stated for each assay.

## CCC1CC(C(=O)NCCNC(=O)CCOCCOCCOCCOCCOCCOCCOCCOCCOCCOCCOCCOC)CC(OC2OC(CO)C(O)C(OC(CC3CCCCC3)C(=O)O)C2NC(C)=O)C1OC1OC(C)C(O)C(O)C1O (stereo not shown)
  IC50: < 4 µM
